Reference: PMC10510324, “A Biomimetic C-Terminal Extension Strategy for Photocaging Amidated Neuropeptides” (Journal of the American Chemical Society, 2023)

The chains behind the UniProt entries cited, without tags or fusion partners.
UniProt P25103, whole entry: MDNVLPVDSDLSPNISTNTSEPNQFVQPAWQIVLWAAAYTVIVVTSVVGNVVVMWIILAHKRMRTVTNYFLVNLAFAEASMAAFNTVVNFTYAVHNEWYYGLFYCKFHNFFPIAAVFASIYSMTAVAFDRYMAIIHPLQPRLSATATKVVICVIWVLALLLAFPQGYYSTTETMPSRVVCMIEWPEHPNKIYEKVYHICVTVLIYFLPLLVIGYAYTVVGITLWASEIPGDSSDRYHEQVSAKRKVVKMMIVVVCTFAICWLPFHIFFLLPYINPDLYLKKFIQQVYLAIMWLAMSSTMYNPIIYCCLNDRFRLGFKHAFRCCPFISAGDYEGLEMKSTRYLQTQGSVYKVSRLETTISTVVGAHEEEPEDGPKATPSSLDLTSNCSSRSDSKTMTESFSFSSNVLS

What was measured:
[1] = molecular target: T1, neurokinin 1 receptor (NK1R) (Homo sapiens, UniProt P25103); assay: GloSensor cAMP assay of GPCR activation, NK1R (agonism and antagonism); assay type: cell-based
T1 construct: host or cells: HEK293T

[2] = tested on: mu and delta opioid receptors (MOR and DOR); assay: Enk-evoked outward (GIRK) current in hippocampal PV interneurons with CCK(8S)-NPP uncaging; assay type: cell-based, mouse; conditions: Enk 1 μM bath application; n = 5 cells from 2 mice; mean ± SEM
Procedure: Data are expressed as the mean ± SEM. […] Data are expressed as the mean ± SEM. […] Data are expressed as the mean ± SEM. […] Data are expressed as the mean ± SEM.
Brain slice preparation. All procedures were performed in accordance with protocols approved by the University of California San Diego Institutional Animal Care and Use Committee (IACUC) following guidelines described in the US National Institutes of Health Guide for Care and Use of Laboratory Animals (UCSD IACUC protocol S16171). Experiments were conducted using mice of both sexes and the data were combined. From Vip Cre; Rosa26-lsl-tdTomato (Ai14), mouse age ranged from P15-30. From Pvalb Cre; Rosa26-lsl-tdTomato (Ai14), mouse age ranged from P20-35. From Chat Cre; Rosa26-lsl-tdTomato (Ai14), mouse age ranged from P40-100. Mice were anesthetized with isoﬂurane and decapitated, and the brain was removed, blocked, and mounted in a VT1000S vibratome (Leica Instruments). For recordings from cortex and striatum, coronal slices (300 μm) were prepared, and for hippocampus, horizontal slices

SP-NPP-ds1: separated diastereomer of NPP-caged substance P
activity at the NK1R ([1]; all concentrations tested (up to 10 μM)): devoid of activity | antagonism of NK1R ([1]; candidate antagonist 1 μM, 5 min before agonist SP): do not antagonize

SP-NPP-ds2: separated diastereomer of NPP-caged substance P
activation of the NK1R ([1]; highest concentration tested, 10 μM, normalized to SP 300 nM): ~50%

[Leu]5-enkephalin
percent current loss 5 min after Enk addition, Enk only [2]: 31.0 ± 19.8
